Laboratory results as given in ChEMBL document CHEMBL6177992, “A First-in-Class Hepatocyte Nuclear Factor 4 Agonist” (J Med Chem, 2025).
Activity calls are given as the source filed them. No cut-off for these calls is given here.

Columns and labels:
[1] = target: T1, Hepatocyte nuclear factor 4-alpha (Homo sapiens) (UniProt P41235); assay: Agonist activity at human Gal4-HNFalpha-LBD expressed in HEK293T cells transfected with pFR-Luc/pRLSV40 assessed as relative luminescence at 100 uM measured after 14 to 16 hrs by hybrid reporter gene assay; type: cell-based; settings: time lower 14.0 hrs, time upper […]
T1 sequence (whole entry): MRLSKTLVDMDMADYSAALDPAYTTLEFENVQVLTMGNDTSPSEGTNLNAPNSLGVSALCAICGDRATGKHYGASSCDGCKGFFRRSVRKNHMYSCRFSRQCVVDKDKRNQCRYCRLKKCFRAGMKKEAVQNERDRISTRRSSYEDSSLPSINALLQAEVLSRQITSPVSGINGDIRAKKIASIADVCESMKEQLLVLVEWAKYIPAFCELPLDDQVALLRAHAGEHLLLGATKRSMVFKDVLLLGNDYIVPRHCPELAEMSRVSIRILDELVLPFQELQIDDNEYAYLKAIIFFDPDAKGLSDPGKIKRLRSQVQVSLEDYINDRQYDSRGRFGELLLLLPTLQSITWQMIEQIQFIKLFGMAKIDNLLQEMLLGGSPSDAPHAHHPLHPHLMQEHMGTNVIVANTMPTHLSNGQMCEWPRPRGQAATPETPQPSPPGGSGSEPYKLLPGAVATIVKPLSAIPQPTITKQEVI

[2] = target: T1, Hepatocyte nuclear factor 4-alpha (Homo sapiens); assay: Agonist activity at human Gal4-HNFalpha-LBD expressed in HEK293T cells transfected with pFR-Luc/pRLSV40 assessed as relative luminescence at 10 uM measured after 14 to 16 hrs by hybrid reporter gene assay; type: cell-based; settings: time lower 14.0 hrs, time upper […]

Activity [1] | Activity [2] | Compound
inactive | – | O=C(O)c1ccc(O)c(-c2ccccc2)c1
inactive | – | O=C(O)c1c(O)cccc1-c1ccccc1
inactive | – | CC(=O)c1cc(-c2ccccc2)ccc1O
inactive | – | O=C(O)c1cc(O)cc(-c2ccccc2)c1

Further lines, the compound ahead of its results:

Compound | Activity [1] | Activity [2]
O=C(O)c1cc(-c2ccccc2)ccc1Cl | inactive | –
O=C(O)c1cc(-c2ccccc2)ccc1CO | inactive | –
O=C(O)c1cc(C#Cc2ccccc2O)ccc1O | – | inactive
O=C(O)c1ccc(C#Cc2ccccc2)cc1O | – | inactive
O=C(O)c1cc(OCc2ccccc2)ccc1O | inactive | –
O=C(O)c1cc(C#Cc2ccc(O)cc2)ccc1O | – | inactive
Cc1cc(O)c(C(=O)O)cc1C#Cc1ccccc1 | – | inactive
O=C(O)c1cc(C#Cc2cccc(O)c2)ccc1O | – | inactive
COc1ccc(-c2ccccc2)cc1C(=O)O | inactive | –
